The source of these data is patent US20240058343A1, “TREATMENT OF URTICARIA USING JAK INHIBITORS” (Incyte Corporation, priority 2022, published 2024).

For the experiment, the target named is human JAK1 (a.a. 837-1142) (Homo sapiens, UniProt P23458). Description: In vitro JAK kinase assay (HTRF), JAK1. Type of experiment: biochemical. The settings on record: 1 mM ATP.

With `CN(C)Cc1cc(F)cc(OC2CCN(CC(CC#N)n3cc(-c4ncnc5[nH]ccc45)cn3)CC2)c1` (single isomer, unassigned) [compound 14, 4-(4-{3-[(dimethylamino)methyl]-5-fluorophenoxy}piperidin-1-yl)-3-[4-(7H-pyrrolo[2,3-d]pyrimidin-4-yl)-1H-pyrazol-1-yl]butanenitrile], the IC50 is less than 10 nM.
